Test results published in ChEMBL document CHEMBL1139835, “Novel quinolizidinyl derivatives as antiarrhythmic agents” (J Med Chem, 2007).

Key:
Assay type in all cases: functional, Cavia porcellus
[1] = tested on: Heart; assay: Heart rate in spontaneously beating Langendorff-perfused guinea pig heart at 10 nM; parameters: unit not given here
[2] = tested on: Heart; assay: Ventricular action potential duration in spontaneously beating Langendorff-perfused guinea pig heart at 10 nM
[3] = tested on: Heart; assay: Heart rate in spontaneously beating Langendorff-perfused guinea pig heart at 1 nM; parameters: unit not given here

Work on `C=C[C@H]1CN2CC[C@H]1C[C@@H]2[C@@H](O)c1ccnc2ccc(OC)cc12` [QUINIDINE] yielded an Activity [1] of 153, an Activity [2] of 170 ms and an Activity [3] of 160.
